Experimental data reported in US8247227B2, “Dendritic cell precursors” (The Cleveland Clinic Foundation, priority 2006, dated 2012).

System: L-selectin^low T cells
Experiment: T cell co-cultures with variously conditioned DCs
Assay type: cell-based, mouse
Details: DCs from other conditioning treatments
Experimental: FIGS. 8A-B show the impact of initial Step 1 DC conditioning treatments upon later T cell cultures. Step 2 DC cultures were performed in rGMCSF and rIL-4 with irradiated MCA-203 cells added at 24 hr and CpG+LPS added at 44 hr. Four hours later, DCs were harvested for co-culture with L-selectin^low T cells freshly harvested from MCA-203 tumor-bearing mice. T cells were co-cultured with DCs at an 8:1 ratio or were activated with immobilized anti-CD3. FIG. 8A is a series of slides showing individual T cell cultures after 6 day co-culture with DCs (labels indicate prior DC conditioning treatments) or with anti-CD3. Cultures shown also received exogenous IL-2, IL-7 and IL-15. This is representative of three full comparison experiments. FIG. 8B is a graph showing the response of conditioned DCs to adoptive therapy. […] Five day established MCA-203 subcutaneous tumors were treated i.v. with T cells from MCA-203 bearers after 12 day culture driven by Flt3-L+IL-6 conditioned DCs or by anti-CD3. Conventional non-myelablative total body irradiation (500 cGy) was given as an adjunct prior to T cells.
FIGS. 13A-B show T cell expansion. […] Cultures shown also received exogenous IL2, IL7 and IL15. FIG. 13B is a graph tabulating T cell expansions. […]

## IL2
  rescue of DC toxicity to T cells by exogenous cytokine: could not be rescued
